Measured values as given in ChEMBL document CHEMBL1132182, “2,6-Difluorophenol as a bioisostere of a carboxylic acid: bioisosteric analogues of gamma-aminobutyric acid” (J Med Chem, 1999).

Chains of the proteins cited; added tags and fusions are not shown. Lines headed by an entry give the natural chain unless they say otherwise; changes in a name come on top.
UniProt P80147: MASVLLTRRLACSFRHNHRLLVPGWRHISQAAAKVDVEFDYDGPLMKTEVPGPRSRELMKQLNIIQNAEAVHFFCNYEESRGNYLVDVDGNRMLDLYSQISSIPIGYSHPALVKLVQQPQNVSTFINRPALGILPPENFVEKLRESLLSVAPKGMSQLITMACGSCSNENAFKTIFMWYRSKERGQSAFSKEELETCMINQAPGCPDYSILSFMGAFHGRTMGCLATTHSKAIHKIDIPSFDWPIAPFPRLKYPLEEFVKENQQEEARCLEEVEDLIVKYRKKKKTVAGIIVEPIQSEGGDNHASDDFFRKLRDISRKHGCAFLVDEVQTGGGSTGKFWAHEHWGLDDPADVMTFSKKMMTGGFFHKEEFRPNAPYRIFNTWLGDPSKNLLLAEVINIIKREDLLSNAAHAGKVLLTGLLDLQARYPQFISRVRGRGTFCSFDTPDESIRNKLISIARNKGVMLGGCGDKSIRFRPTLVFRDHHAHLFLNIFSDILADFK

What was measured:
[1] = target: 4-aminobutyrate aminotransferase, mitochondrial (Sus scrofa) (UniProt P80147); assay: Anticonvulsant activity against Gamma-amino-N-butyrate transaminase from pig brain, by measuring the conversion of [14C]- alpha-ketoglutarate to [14C]- glutamate using radio chemical procedure.
[2] = target: 4-aminobutyrate aminotransferase, mitochondrial (Sus scrofa) (UniProt P80147); assay: Anticonvulsant activity against GABA aminotransferase from pig brain, by measuring the conversion of [14C]- alpha-ketoglutarate to [14C]- glutamate using radio chemical procedure.; format: tissue-based

| SMILES | Conversion [1] [%] | Conversion [2] [%] |
| --- | --- | --- |
| NCc1ccc(F)c(O)c1F | 0.07 | – |
| NCc1cc(F)c(O)c(F)c1 | – | 0.5 |
